Here are results for one substance from patent US20150219632A1, “METHOD AND APPARATUS FOR SYSTEMATIC SINGLE CELL TRACKING OF DISTINCTIVE CELLULAR EVENTS” (published 2015).

The subject of this data set is HeLa cells. Kind of data set: Long-term live cell imaging (DIC) with individual cell tracking and cell lineage database analysis of distinctive cellular events.
[1] abbreviates: HeLa, MNNG 1 μM, normalized by 200 progenitors.
[2] abbreviates: HeLa, non-cytotoxic dose of MNNG.

For methylnitronitrosoguanidine, the “Cytotoxicity conclusion for HeLa cells” value (1 μM MNNG) is “non-cytotoxic dose”. For the same substance, the “Number of dead cells compared with control” value (HeLa, 1 μM MNNG) was “almost similar to that of control”. Moreover, the “Effect on cell growth rate” value (HeLa, 1 μM MNNG, FIG. 12B) is recorded as “did not show any effect”. Further, under “HeLa, 1 μM MNNG, FIGS. 13A and 13B”, the “Prolongation of doubling time” value is “no major prolongation”. For the same substance, for the setting “HeLa, MNNG 1 μM”, the “CD (cell death), % of Total DV” value turned out to be 26.1 ± 4.2%; the “CF (cell fusion), % of Total DV” value is recorded as 6.3 ± 2.3%; the “MD (multipolar division), % of Total DV” value is recorded as 4.5 ± 0.2 %. Besides, the “Growth fold (cell number at T=900 divided by cell number at T=1)” value (HeLa, MNNG 1 μM, mean ± SD) is on record as 7.0 ± 0.5. Under setting [1], the “CD (cell death), Total No.” value was 273.4 ± 49.1; the CF (cell fusion), Total No. is 149 ·; the “Total DV (total cell division), Total No.” value worked out at 1983 ± 199. Also, under setting [2], the “Cell fusion, % of total cell division events, change versus non-treated” value is recorded as “not changed” and the “Total number of cell fusion events, change versus non-treated” value was “slightly increased”. Further, the “Multipolar events relative to non-treated cells” value (HeLa, non-cytotoxic dose of MNNG (1 μM)) is on record as “about 1.7 times”. For the same substance, where the note is “HeLa, non-cytotoxic dose of MNNG, after normalization to total cell division”, the “Difference in % of multipolar division events compared to non-treated cells” value is “statistically significant difference”. The “Effect on HeLa cell growth” value (non-cytotoxic dose of MNNG (1 μM), Table 1) is “slight promoting effect”.
